In the test the target is Vip3Cb1 protoxin with two engineered cysteine mutations (Cys162 and Cys164) (Paenibacillus sp. strain DSC004343). Briefly: cryo-EM structure.

The values below come from PMC12285222, “Vip3C proteins from Paenibacillus spp. for controlling lepidopteran crop pests” (2025).

One may read the stoichiometry N as the number of molecules, sites or subunits per partner or assembly. “Vip3Cb1 protoxin with two engineered cysteine mutations (Cys162 and Cys164) (natural protein)” gave a stoichiometry N of 4.
